Values quoted from earlier work, collected in publication PMC1562422.
pKd: −log10 of the molar value.

Protein sequences, listed by entry. Tags and fused reporters are not part of them. Residues count along the entry.
UniProt P01589, 22-240, chain 1 of 2: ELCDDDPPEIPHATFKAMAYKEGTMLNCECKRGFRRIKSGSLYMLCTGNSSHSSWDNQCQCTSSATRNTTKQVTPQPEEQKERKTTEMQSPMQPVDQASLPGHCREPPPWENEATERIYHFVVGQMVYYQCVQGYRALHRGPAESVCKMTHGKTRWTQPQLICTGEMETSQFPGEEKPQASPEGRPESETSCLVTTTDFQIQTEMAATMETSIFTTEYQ
UniProt P60568, 21-153: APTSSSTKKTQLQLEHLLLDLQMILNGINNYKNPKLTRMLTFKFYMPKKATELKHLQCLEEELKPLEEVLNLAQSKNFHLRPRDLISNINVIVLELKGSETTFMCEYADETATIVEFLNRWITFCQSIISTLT

Molecular target: IL2 receptor α/β heterodimer (Homo sapiens) (UniProt P01589)
Experiment: SPR

pKd: 9.52
Substance: IL2 (from UniProt P60568)
